Tests used:
Type in all cases: binding
NMDA NR1-1b S1S2 domain [1] = molecular target: T1, NMDA NR1-1b S1S2 domain (Rattus norvegicus, UniProt P35439); test: Kd determination by intrinsic tryptophan fluorescence (double reciprocal, Benesi-Hildebrand plot); details: 5.29 μM NR1-1b S1S2, buffer 3 pH 6.5, 25°C, error at 95% confidence level
T1 construct: (His)8-TSG-LVPRG(thrombin cut site)-S1(394-544)-GT-S2(663-800); (His)8-TSG-LVPRG (His8 tag with thrombin cut site) (N); made in house; host or cells: E. coli Origami B(DE3)
Procedure: (§1) Intrinsic fluorescence studies were performed in a Cary Eclipse fluorometer at 25°C. All emission scans were acquired from 300 to 400 nm upon excitation at 290 nm, with 10 nm excitation and emission slit widths in a 10 mm-path-length cell. Excitation was performed at 290 nm to minimize interference from both tyrosine residues in the NMDA NR1-1b S1S2 domain as well as the aromatic antidepressants being studied. Before data acquisition, samples were incubated for thirty seconds in the sample holder at 25°C. […] Thus, data was reported without a buffer subtraction.
(§2) Protein samples were at a final concentration of 5.29 μM in buffer 3 (10 mM MES, pH 6.5, 25 mM NaCl, 1 mM glycine). All antidepressants were solubilized in 100% methanol to the highest attainable concentrations. To account for any effects methanol had on fluorescence intensity, protein spectra with methanol were collected, allowing direct comparison between samples with and without antidepressant. Each data set consisted of at least three independent emission spectra of identically prepared samples. The data is reported with error determined at the 95% confidence level.
A double reciprocal plot was used to determine Kd, which derives from the Benesi-Hildebrand relationship, provided there is a 1 : 1 binding stoichiometry. […] When 1/ΔF is plotted against 1/[L], a linear relationship exists. The intercept on the x-axis is − K d.. […]

NMDA NR1-1b S1S2 domain [2] = molecular target: T1, NMDA NR1-1b S1S2 domain; test: Intrinsic tryptophan fluorescence quenching and λ max of emission; details: for λ max of the NR1-1b drug bound complex: excitation 290 nm, 25°C, apo 326.24 nm, drug at final quenching concentration
Procedure: as §1
as §2, with “All” for “Protein samples were at a final concentration of 5.29 μM in buffer 3 (10 mM MES, pH 6.5, 25 mM NaCl, 1 mM glycine). All”
The fluorescence intensity of the NR1-1b S1S2 domain was determined in the presence and absence of eachantidepressant with the appropriate blank subtraction. […] For all samples, the final concentration of methanol was kept at 1.8%.

NMDA NR1-1b S1S2 domain [3] = molecular target: T1, NMDA NR1-1b S1S2 domain; test: Extrinsic ANS fluorescence; details: ANS 1 : 1 with 5.29 μM NR1-1b S1S2, excitation 380 nm; drug concentrations as in Figure 4
Procedure: Extrinsic fluorescence studies were performed in a Cary Ec-lipse fluorometer at 25°C. All emission scans were acquired from 400 to 600 nm after excitation at 380 nm with 20 nm slit widths for emission and excitation in a 10 mm-path-length cell. Before data acquisition, samples were incubated for thirty seconds in the sample holder at 25°C. Blanks were collected both for the antidepressants and the NR1-1b S1S2 domain. Three emission spectra of identicallyprepared samples were averaged for each plot. 8-Anilino-1-naphthalenesulfonic acid (ANS, TCI America), in a 1 : 1 molar ratio, was added to 5.29 μM of the NR1-1b S1S2 domain premixed with antidepressant (at final concentrations as above for intrinsic quenching studies in addition to the SSRIs fluoxetine (8.62 μM) and fluvoxamine (2.81 mM) and the SNRI venlafaxine (29.07 μM)). As with all intrinsic assays, total methanol concentration was kept at 1.8%. Plots of intensity versus wavelength were constructed from averaged emission spectra.

| Kd (NMDA NR1-1b S1S2 domain [1]) | SMILES | λ max of the NR1-1b drug bound complex (NMDA NR1-1b S1S2 domain [2]) | Binding to NR1-1b S1S2 by intrinsic tryptophan fluorescence (NMDA NR1-1b S1S2 domain [2]; desipramine, trimipramine, imipramine 137 μM, maprotiline 3.18 mM, nortriptyline 2.08 mM, paroxetine 3.75 mM, sertraline 1.88 mM, fluvoxamine 2.81 mM) | λ max of the NR1-1b drug bound complex (NMDA NR1-1b S1S2 domain [2]; listed as Sertraline) | Change of tryptophan fluorescence emission upon binding (NMDA NR1-1b S1S2 domain [2]; intensity versus apo NR1-1b S1S2) | ANS emission spectrum of the NR1-1b S1S2 complex versus ANS bound to apo S1S2 (binding) (NMDA NR1-1b S1S2 domain [3]) |
| --- | --- | --- | --- | --- | --- | --- |
| 830 ± 150 µM | CN(C)CCCN1c2ccccc2CCc2ccccc21 [imipramine] | 328.04 nm | – | – | – | – |
| – | CN[C@H]1CC[C@@H](c2ccc(Cl)c(Cl)c2)c2ccccc21 [sertraline] | 329.07 ± 0 nm | binding | 329.07 nm | decrease in fluorescence emission | significantly different |

From publication PMC2809336, “Antidepressant Interactions with the NMDA NR1-1b Subunit” (Journal of Biophysics, 2008)
